Literature values, collected in patent US10874626B2, “Formulation for use in a method of treatment of pain” (NEVAKAR Inc., priority 2016, dated 2020).
Read-outs that look alike come from different tables or passages of the source.

Conditions: oral, cited from earlier work

Question: What does the source list for “1-(aminomethyl) cyclohexane acetic acid [Gabapentin]”?
Answer: bioavailability of gabapentin (900 mg/day given in 3 divided doses): approximately 60%; bioavailability of gabapentin (1200 mg/day given in 3 divided doses): ~47%; bioavailability of gabapentin (3 divided doses, fourth of four values printed for five doses (3600 or 4800 mg/day)): ~27%; bioavailability of gabapentin (3 divided doses, third of four values printed for five doses (2400 or 3600 mg/day)): ~33%
